Measurements as given in patent US20220142566A1, “CLOSED-LOOP DETECTION AND TREATMENT OF RADIATION AND TOXIC AGENTS” (published 2022).

System: Yorkshire pigs
Test: white blood cell counts after delivery of sargramostim in vivo
Details: FIG. 17

sargramostim was tested, and the “WBC count over time (effectiveness of delivery)” value (single 250 microgram dose into the gastric wall of anesthetized pigs via drug release component of endoscopically placed SOMA article, CBCs daily for 7 days) was “effective” and the “WBC count compared with a dose administered subcutaneously” value (single 250 microgram dose via SOMA drug release component vs single 250 microgram subcutaneous dose) was “not identical to a dose administered subcutaneously”.
